Tested on: A2780 cells
Assay: In-Vitro Cell Proliferation Assay (SRB, 72 hours)
Type: cell-based
Conditions: read-out: A2780 IC50, sulforhodamine B

## O=C(/C=C/c1cccnc1)Nc1ccc(S(=O)(=O)c2cccnc2N2CCOCC2)cc1
  IC50: 100 to 1000 nM

From patent US9169209B2, “Compounds and compositions for the inhibition of NAMPT” (FORMA TM, LLC, priority 2011, dated 2015)
